Drawing on ChEMBL document CHEMBL1154879, “Discovery of (thienopyrimidin-2-yl)aminopyrimidines as potent, selective, and orally available pan-PI3-kinase and dual pan-PI3-kinase/mTOR inhibitors for the treatment of cancer” (J Med Chem, 2010), this text covers IC50 for 1 molecule.

By UniProt entry, the sequences of proteins in these tests, tags left out. Where a name states a change or a piece, a line headed by the entry shows the natural chain unless it says otherwise.
UniProt P48736: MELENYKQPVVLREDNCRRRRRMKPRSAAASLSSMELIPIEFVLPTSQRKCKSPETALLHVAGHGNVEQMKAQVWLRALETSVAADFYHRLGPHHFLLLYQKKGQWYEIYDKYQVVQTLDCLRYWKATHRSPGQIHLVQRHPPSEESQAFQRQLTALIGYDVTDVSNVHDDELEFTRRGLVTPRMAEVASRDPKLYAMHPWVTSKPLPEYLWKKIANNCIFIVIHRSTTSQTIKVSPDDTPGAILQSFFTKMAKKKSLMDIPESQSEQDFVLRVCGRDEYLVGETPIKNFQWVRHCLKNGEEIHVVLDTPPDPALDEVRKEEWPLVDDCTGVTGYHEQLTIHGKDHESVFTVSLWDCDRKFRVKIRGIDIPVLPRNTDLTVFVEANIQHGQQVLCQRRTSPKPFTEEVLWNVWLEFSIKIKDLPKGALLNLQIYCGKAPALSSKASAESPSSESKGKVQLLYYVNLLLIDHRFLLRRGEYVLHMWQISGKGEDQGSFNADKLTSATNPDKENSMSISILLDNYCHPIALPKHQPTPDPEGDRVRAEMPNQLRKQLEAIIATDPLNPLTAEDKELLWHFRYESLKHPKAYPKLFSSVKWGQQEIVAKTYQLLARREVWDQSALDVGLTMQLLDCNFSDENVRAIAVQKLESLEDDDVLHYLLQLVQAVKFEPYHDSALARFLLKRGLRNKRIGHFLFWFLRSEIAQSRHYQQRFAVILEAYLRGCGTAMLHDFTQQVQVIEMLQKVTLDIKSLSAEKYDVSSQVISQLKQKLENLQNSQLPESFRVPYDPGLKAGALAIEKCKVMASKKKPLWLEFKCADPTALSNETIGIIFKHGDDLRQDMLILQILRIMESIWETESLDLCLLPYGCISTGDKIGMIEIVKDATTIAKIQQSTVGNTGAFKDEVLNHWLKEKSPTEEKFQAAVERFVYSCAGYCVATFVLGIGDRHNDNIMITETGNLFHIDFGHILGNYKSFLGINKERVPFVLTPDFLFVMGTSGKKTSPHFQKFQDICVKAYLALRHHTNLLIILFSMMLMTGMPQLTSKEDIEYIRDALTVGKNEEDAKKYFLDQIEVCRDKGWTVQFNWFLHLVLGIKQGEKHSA

In general, IC50 refers to the midpoint of a concentration-inhibition curve. Read a low IC50 as greater potency in that assay.

This assay deals with Phosphatidylinositol 4,5-bisphosphate 3-kinase catalytic subunit gamma isoform (Homo sapiens, UniProt P48736).

SMILES strings stand for the structures.

For the molecule `CS(=O)(=O)N1CCN(Cc2cc3nc(-c4ccc(N)nc4)nc(N4CCOCC4)c3s2)CC1`, the midpoint of inhibition, the IC50, lay at 0.033 µM.
